Laboratory results as given in patent publication US11911434B2, “Stable antibody-drug conjugate, preparation method therefor, and use thereof” (GENEQUANTUM HEALTHCARE (SUZHOU) CO., LTD., priority 2014, dated 2024).
“Also recorded” adds a separate entry of the source.

Columns and labels:
[1] = tested on: BT-474 cells; assay: Tumor cell proliferation, CellTiter Glo, BT-474; assay type: cell-based, human; settings: BT-474, 48-96 h; read-out: Inhibition effects on tumor cell proliferation (IC50)
Protocol: (§1) To study the selective inhibition of a candidate ADC on tumor cells (e.g. ErbB2/Her2 high expressing tumor cells), the following assays were used to determine the cytotoxicity or proliferation inhibition of candidate ADCs: the mammalian tumor cells with tumor-associated antigen or receptor protein (e.g. breast cancer cells with high or low ErbB2/Her2 expression) were incubated with the candidate ADC for about 12-120 h, the Cell Titer Glo method was used to determine the cell viability.
(§2) 1) ErbB2/Her2 low expressing human breast cancer cells MCF-7, MDA-MB-468, ErbB2/Her2 high expressing human breast cancer cells BT-474, SK-BR-3, HCC1954, human ovarian cancer cells SK-OV-3, human gastric cancer cell NCI-N87 was seeded into a 96-well plate at 100 μl/well (containing 1000 to 10000 cells), and incubated in a cell culture incubator overnight (37° C., 5% CO2, 95% air, 100% humidity).
(§3) 3) The cell plate was removed from the incubator, equilibrated for about 30 minutes to room temperature. Each well was added 100 μl CellTiter Glo reagent, shocked in an oscillator for 2 min, then left stand for 10 min at room temperature in dark, the relative light units (RLU) is measured with a BioTech Gen5 microplate reader.

[2] = Single injection acute toxicity study in rats; assay type: in vivo, SD rats
Protocol: The acute toxicity of the candidate ADC was evaluated in rats. Female Sprague-Dawley rats were injected with high doses (60 mg/kg or more) of ADCs, and impact of drugs on the animals was then observed and analyzed, and index such as body weight, clinical signs, hematology, clinical biochemistry and histopathology were studied to evaluate the toxicity of the candidate ADC.
The drug was administered by a single injection via tail vein. The administration dose is 10 ml/kg, and the administration rate is about 1 ml/min. During the experiment, the animals were subjected to clinical inspection, and were examined for body weight, food intake, blood count, blood biochemical indices. At the end of the experiment, all animals were euthanized, anatomized and checked systematically. All major organs were weighed, organ coefficient was calculated and any visible lesions were recorded.

[3] = tested on: NCI-N87 cells; assay: Tumor cell proliferation, CellTiter Glo, NCI-N87; assay type: cell-based, human; settings: NCI-N87, 48-96 h; read-out: Inhibition effects on tumor cell proliferation (IC50)
Protocol: as §1, §2, §3

[4] = tested on: SK-OV-3 cells; assay: Tumor cell proliferation, CellTiter Glo, SK-OV-3; assay type: cell-based, human; settings: SK-OV-3, 48-96 h; read-out: Inhibition effects on tumor cell proliferation (IC50)
Protocol: as §1, §2, §3

[5] = tested on: HCC-1954 cells; assay: Tumor cell proliferation, CellTiter Glo, HCC1954; assay type: cell-based, human; settings: HCC-1954, 48-96 h; read-out: Inhibition effects on tumor cell proliferation (IC50)
Protocol: as §1, §2, §3

[6] = tested on: SK-BR-3 cells; assay: Tumor cell proliferation, CellTiter Glo, SK-BR-3; assay type: cell-based, human; settings: SK-BR-3, 48-96 h; read-out: Inhibition effects on tumor cell proliferation (IC50)
Protocol: as §1, §2, §3

GQ1001
IC50 [1]: 0.41 nM | hematology and clinical biochemical analysis: toxic reaction ([2]; GQ1001 6 and 60 mg/kg): no significant toxic reaction | systematic anatomy and gross observation ([2]; each GQ1001 dose group (6, 60 mg/kg)): no abnormal changes | acute toxicity compared with Kadcyla ([2]; equivalent doses of 60 mg/kg, 60 mg/kg): significantly less than Kadcyla; also recorded: significantly lower than that of Kadcyla | clinical abnormality ([2]; female SD rats, single tail vein injection, GQ1001 6 and 60 mg/kg): no clinical abnormality | ALT and AST level compared with vehicle control ([2]; single tail vein injection, GQ1001 6 and 60 mg/kg, Kadcyla 60 mg/kg): no significant change | body weight change compared with vehicle control ([2]; single tail vein injection, GQ1001 6 and 60 mg/kg, Kadcyla 60 mg/kg (D2-D12)): no significant difference; also recorded: no change in body weight | IC50 [3]: 0.113 nM | IC50 [4]: 0.144 nM | IC50 [5]: 0.149 nM | IC50 [6]: 0.14 nM
